# Laboratory results from patent US12599130B2, “Liquid agricultural adjuvant” (Oro Agri Inc., priority 2019, dated 2026).
# Test: Paraffin wax solubility test
# Format: physicochemical
# Details: 2.0 g paraffin wax in 98 g solvent, 25° C., stirring at 350 rpm
smiles,measurement,value
CCCCCCCCCCCCCC(=O)OC(C)C [ISOPROPYL MYRISTATE],DISSOLUTION TIME,627 min
